How the values were obtained:
Assay type in all cases: cell-based
[1] = system: human platelets (ADP-induced aggregation); assay: "In vitro" aggregation on human platelets (PRP), ADP-induced; conditions: Platelet, 0.25 h, compound 10^-4 M, 37° C., 15 minutes, 2.5 uM ADP
Experimental: (§1) (A) "IN VITRO" A[…] HUMAN PLATELETS (Born, G.V.R., Nature 194:927 (1962)).
(§2) Citrated human blood was used, from which platelet-rich plasma (PRP) was prepared. 450 ul PRP aliquots were incubated at 37° C. with the assayed compounds at a single concentration of 10^-4 M for 15 minutes. Aggregating agents (2 ug/ml collagen and 2.5 uM ADP) were added in a 50 ul volume and the aggregation was measured as optical density decrease in the platelet suspension.

[2] = system: human platelets (collagen-induced aggregation); assay: "In vitro" aggregation on human platelets (PRP), collagen-induced; conditions: Platelet, 0.25 h, compound 10^-4 M, 37° C., 15 minutes, 2 ug/ml collagen
Experimental: as §1, §2

[3] = system: human platelets (ATP secretion); assay: Releasing reaction (ATP secretion from activated platelets), simultaneous to collagen aggregation; conditions: Platelet, 0.25 h, human PRP, compound 10^-4 M, 37° C., 15 minutes, 2 ug/ml collagen
Experimental: as §2

OCCN(CCO)c1nc(N2CCCCC2)c2nc(N(CCO)CCO)nc(N3CCCCC3)c2n1 [DIPYRIDAMOL, reference compound]
inhibition at 100 µM [1]: 17% | inhibition at 100 µM [2]: 21% | inhibition at 100 µM [3]: 38%
